This passage reports Ki results from ChEMBL document CHEMBL1122336, “Aromatic amidines: comparison of their ability to block respiratory syncytial virus induced cell fusion and to inhibit plasmin, urokinase, thrombin, and trypsin” (J Med Chem, 1983).

The target of the assay is Urokinase-type plasminogen activator (Homo sapiens, UniProt P00749). As to the kind of experiment: Inhibition constant against Urokinase.

The Ki is the dissociation constant of the complex between target and ligand, obtained from inhibition or displacement. A higher Ki goes with weaker binding. As for `N=C(N)c1ccc2nc(Cc3nc4ccc(C(=N)N)cc4[nH]3)[nH]c2c1`, the affinity corresponds to a Ki of 2330 nM.
